In one data set the test system is MCF7/ADR-RES. Kind of data set: NCI screen, MCF7/ADR-RES (Breast Cancer). The data set is classed as cell-based, human. Particulars: read-out: LC50 (the source's name).
In a further data set the test system is MDA-MB-231/ATCC. The note with it: read-out: LC50.
The conditions of data set [1]: favoring the natural (+)-isomer; cited from earlier work.

On to `O=C(Nc1cc(O)ccc1CCCl)c1cc2cc(NC(=O)c3cc4ccccc4o3)ccc2[nH]1` [Compound 1, 4-(2-Chloroethyl)-3-[5-(5-benzofuran-2-carboxamido)indole-2-carboxamido]phenol], for which the CC50 in the data set on MALME-3M was found to be 6.87 µM; with CAKI-1 it was 27.7 µM; with HCT-15, 16.7 µM; with NCI-H23, 6.84 µM; in the data set on SN12C it was 43.5 µM; in the data set with HOP-62, 19.5 µM. Also, the CC50 with OVCAR-4 is 13.5 µM; in the data set on ACHN, 23.4 µM; in the data set on OVCAR-3 it was 10.9 µM; with UACC-62, 6.18 µM; in the data set with KM12, 65 µM; in the data set on EKVX, 13.7 µM. Further, the CC50 in the data set on MDA-MB-435 worked out at 7.45 µM; in the data set with A549/ATCC, 24.8 µM; in the data set with M14, 6.81 µM; with SNB-19 it was 51.6 µM; in the data set on SK-OV-3 it was 26.7 µM; in the data set on SK-MEL-5 it was 6.44 µM. Besides, the CC50 stood at 18.2 µM with PC-3; 7.77 µM in the data set on IGROV1; 44.4 µM with NCI-H226; 42.2 µM in the data set with LOX IMVI; 6.18 µM with UACC-257; 8.7 µM with MCF7/ADR-RES. Also, the CC50 worked out at 19.7 µM in the data set on MDA-N; 96.6 µM in the data set with HT29; 53.5 µM in the data set with SW-620; 57.3 µM in the data set on SF-268; 98.3 µM in the data set with 786-0; 8.12 µM in the data set with OVCAR-8. The CC50 turned out to be 59 µM in the data set on SNB-75; 27.4 µM with DU-145; 15.6 µM with HOP-92; 5.43 µM with SK-MEL-2; 24.3 µM in the data set on HCT-116; 9.33 µM in the data set with NCI-H522. The CC50 with SF-295 is 24.2 µM; in the data set with NCI-H322M, 33 µM; in the data set on MDA-MB-231/ATCC, 49.6 µM; in the data set on TK-10 it was 19.9 µM; in the data set on HCC-2998, 7.22 µM.
Turning to CPI-PDE-I1, the “difference in cytotoxicity between enantiomers” value in data set [1] is recorded as “about 150 fold”.
For CPI-CDPI1, in data set [1], the “difference in cytotoxicity between enantiomers” value is “about 150 fold”.
